The text below walks through data of PubChem BioAssay AID504803 (The Scripps Research Institute Molecular Screening Center, 2011).

Sequences of proteins named here, by UniProt entry; tags and fusion partners are left off.
UniProt Q92743, whole entry: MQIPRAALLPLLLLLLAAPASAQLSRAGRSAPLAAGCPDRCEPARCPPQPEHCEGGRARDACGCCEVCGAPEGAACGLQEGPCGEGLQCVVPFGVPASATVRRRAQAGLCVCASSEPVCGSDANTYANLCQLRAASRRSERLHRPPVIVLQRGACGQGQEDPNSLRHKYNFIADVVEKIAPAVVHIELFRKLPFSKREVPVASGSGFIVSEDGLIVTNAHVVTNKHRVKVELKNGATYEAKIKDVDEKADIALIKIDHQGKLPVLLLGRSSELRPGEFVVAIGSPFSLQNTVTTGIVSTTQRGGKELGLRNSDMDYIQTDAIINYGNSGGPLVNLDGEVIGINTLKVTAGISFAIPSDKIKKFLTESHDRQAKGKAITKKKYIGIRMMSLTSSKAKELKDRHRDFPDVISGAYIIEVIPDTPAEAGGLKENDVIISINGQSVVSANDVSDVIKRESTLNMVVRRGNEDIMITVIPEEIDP

Molecules are shown by their SMILES. This is a selection; strong and weak results do not stand in their true shares. Calls of active or inactive are those of the source. Rule as the data show it: active = inhibition above about 36%; inactive = the rest.

For the test, the target named is Serine protease HTRA1 (Homo sapiens) (UniProt Q92743). Nature of the test: HTRA1 serine protease inhibitors, primary screen, biochemical, fluorescence polarization, HTS (AID 504803).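 Also: 0% = enzyme with DMSO and 100% = wells lacking enzyme.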 To be noted: recombinant HTRA1, FP-rhodamine activity-based probe, at 5.96 µM, active compounds read high.
Regarding `CCCCOc1ccc(C(=O)NCC2(N3CCOCC3)CCCCC2)cc1`, the inhibition (as a rule, the relative decrease from the control value, in per cent) was inactive: -1.82%.

As for `O=P1(N(CCCl)CCCl)SCCCS1`, the inhibition is inactive: -3.25%.

In the case of `O=C(NCC1(N2CCCCC2)CCCCC1)c1ccc(F)cc1`, the inhibition is inactive: 1.83%.

As to `CCOC(=O)N1CCC(Nc2ccc(F)cc2)CC1`, the inhibition is inactive: 3.38%.

`COc1ccc(NC2CCN(CCc3ccccc3)CC2)c(OC)c1`: the inhibition was inactive: 9.61%.

In the case of `CCOc1ccc(C)cc1CN(CCCl)CCCl`, the inhibition is inactive: 7.46%.

For `O=C1CCN(Cc2ccccc2)CC1`, the inhibition was inactive: -7.72%.

Regarding `CCOC(=O)N1CCC(Nc2cccc(C)c2)CC1`, the inhibition is inactive: -0.36%.

With `COc1cc(C(=O)NCC2(N(C)C)CCCCC2)ccc1OC(F)F`, the inhibition is inactive: 9.09%.

`CSc1ccccc1C(=O)NCC1(N2CCCCC2)CCCCC1`: the inhibition was inactive: -1.99%.

With `Cc1cccc(NC2(C#N)CCN(Cc3ccccc3)CC2)c1`, the inhibition is inactive: 5.72%.

Take `O=C(NCC1(N2CCCCC2)CCCCC1)c1ccc(=O)[nH]c1`: the inhibition was inactive: 1.79%.

For `O=C(NCC1(N2CCCCC2)CCCCC1)c1cccs1`, the inhibition is inactive: -0.31%.

With `COc1ccc(C(=O)NCC2(N3CCCCC3)CCCCC2)cc1`, the inhibition was inactive: -2.81%.

In the case of `COc1ccc(C(=O)NCC2(N3CCCCC3)CCCCC2)c(OC)c1OC`, the inhibition is inactive: -1.46%.

As to `CC(C)(C)OC(=O)N1CCC(N(C(=O)c2ccccc2)c2ccc(F)cc2)CC1`, the inhibition was inactive: -5.32%.

In the case of `CCOC(=O)N1CCC(Nc2ccc(OC)cc2)CC1`, the inhibition is inactive: 4.24%.

As for `N#CC1(Nc2ccccc2)CCN(Cc2ccccc2)CC1`, the inhibition was inactive: 8.06%.

In the case of `O=C(NCC1(N2CCCCC2)CCCCC1)c1ccc(Cl)s1`, the inhibition is inactive: -3.77%.

Consider `O=C(OC1CN2CCC1CC2)C1c2ccccc2Oc2ccccc21` (stereo not given), for which the inhibition was inactive: 4.38%.

As for `COc1ccc(Cl)cc1C(=O)NCC1(N2CCOCC2)CCCCC1`, the inhibition is inactive: -3.15%.

On to `O=C(NCC1(N2CCOCC2)CCCCC1)c1cc2ccccc2o1`, for which the inhibition is inactive: -13.3%.

On to `O=C(NCC1(N2CCCCC2)CCCCC1)c1ccc(Cl)nc1`, for which the inhibition was inactive: 0.62%.

On to `Cc1cc(C)cc(N(C(=O)c2ccccc2)C2CCN(C(=O)OC(C)(C)C)CC2)c1`, for which the inhibition was inactive: -26.5%.

For the compound `COc1cc(OC)c(C(=O)NCC2(N(C)C)CCCCC2)cc1OC`, the inhibition was inactive: 5.17%.

As for `O=C(NCC1(N2CCOCC2)CCCCC1)c1cc(F)c(F)cc1Cl`, the inhibition was inactive: 9.27%.

As to `COc1ccc(CN(CCCl)CCCl)cc1Cl`, the inhibition was inactive: -3.16%.

In the case of `CN(C)c1cccc(C(=O)NCC2(N3CCCCC3)CCCCC2)c1`, the inhibition is inactive: 7.1%.

Take `CC(C)c1ccc(NC2CCN(C(=O)OC(C)(C)C)CC2)cc1`: the inhibition was inactive: 7.59%.

With `Cc1ccc(C(=O)NCC2(N(C)C)CCCCC2)o1`, the inhibition was inactive: 9.5%.

For the compound `CCCOc1ccc(C(=O)NCC2(N(C)C)CCCCC2)cc1OC`, the inhibition is inactive: 1.39%.

Take `CN1CCC(Nc2cccc(F)c2)CC1`: the inhibition is inactive: 0.68%.

On to `O=C(NCC1(N2CCCCC2)CCCCC1)c1cncc(Br)c1`, for which the inhibition is inactive: -1.38%.

As for `CSc1ccc(C(=O)NCC2(N3CCOCC3)CCCCC2)cc1`, the inhibition was inactive: -0.97%.

In the case of `O=C(NCC1(N2CCCCC2)CCCCC1)c1cccc([N+](=O)[O-])c1`, the inhibition is inactive: -0.7%.

`CCN1CCC(Nc2ccc(Cl)cc2)CC1`: the inhibition was inactive: 5.9%.

Consider `N#CC1(Nc2ccccc2)CCN(CCc2ccccc2)CC1`, for which the inhibition was inactive: 6.09%.

For the compound `O=C(NCC1(N2CCCCC2)CCCCC1)c1ccc(OC(F)F)cc1`, the inhibition is inactive: -10.2%.

In the case of `COc1ccc(NC2CCN(C(=O)OC(C)(C)C)CC2)cc1`, the inhibition was inactive: 2.68%.

As for `CC(C)c1ccc(C(=O)NCC2(N3CCOCC3)CCCCC2)cc1`, the inhibition is inactive: 0.29%.

As for `CN1CCN(CCOC(=O)C(O)(c2ccccc2)c2ccccc2)CC1`, the inhibition is inactive: 2.78%.

In the case of `O=C(NCC1(N2CCOCC2)CCCCC1)c1cc(=O)[nH]c2ccccc12`, the inhibition was inactive: 1.17%.

As to `COc1cc(C(=O)NCC2(N3CCCCC3)CCCCC2)ccc1OC(F)F`, the inhibition was inactive: -7.96%.

As to `O=C(NCC1(N2CCCCC2)CCCCC1)c1cccc(C(F)(F)F)c1`, the inhibition is inactive: 7.01%.

`CC(C)(C)OC(=O)N1CCC(N(C(=O)c2ccccc2)c2ccc(Cl)cc2)CC1`: the inhibition is inactive: -18.4%.

As to `N#Cc1ccc(C(=O)NCC2(N3CCCCC3)CCCCC2)cc1`, the inhibition is inactive: 3.38%.

Turning to `c1ccc(CN2CCC(Nc3ccccc3)CC2)cc1`, the inhibition is inactive: -3.19%.

With `CCCN1CCC(Nc2cc(OC)cc(OC)c2)CC1`, the inhibition is inactive: 7.01%.

As for `Cc1cc(N(CCCl)CCCl)ccc1C=O`, the inhibition was inactive: 1.75%.

As to `CN(C)C1(CNC(=O)c2cccc(C#N)c2)CCCCC1`, the inhibition was inactive: -11.3%.

For `COc1ccc(C(=O)NCC2(N3CCOCC3)CCCCC2)cc1OC`, the inhibition was inactive: -2.4%.

Turning to `O=C(NCC1(N2CCOCC2)CCCCC1)c1cc(Br)ccc1Cl`, the inhibition was inactive: 6.12%.

Take `COc1cc(C(=O)NCC2(N3CCOCC3)CCCCC2)cc(OC)c1C`: the inhibition was inactive: -7.13%.

As to `O=C(OC1CN2CCC1CC2)C1c2ccccc2C=Cc2ccccc21` (stereo not given), the inhibition was inactive: 2.12%.

On to `N/C(=N\O)c1c(N)no[n+]1[O-]`, for which the inhibition was inactive: 5.44%.

For the compound `CCOC(=O)N1CCC(Nc2ccc(C)cc2)CC1`, the inhibition is inactive: -1.89%.

For the compound `CCCOc1ccc(C(=O)NCC2(N(C)C)CCCCC2)cc1`, the inhibition was inactive: -2.92%.

Regarding `CC(C)(C)OC(=O)N1CCC(Nc2ccccc2)CC1`, the inhibition was inactive: -3.97%.

Turning to `O=C(O)C1(Nc2ccccc2)CCN(Cc2ccccc2)CC1`, the inhibition is inactive: -0.06%.

Turning to `CCOc1ncccc1C(=O)NCC1(N2CCOCC2)CCCCC1`, the inhibition is inactive: 0.37%.

With `CN1CCC(Nc2ccc(F)c(Cl)c2)CC1`, the inhibition was inactive: -0.12%.

For `CN1CCC(Nc2ccc(Cl)cc2)CC1`, the inhibition is inactive: 0.87%.

With `CCC(CO)(C(=O)OC1CN2CCC1CC2)c1ccccc1` (stereo not given), the inhibition was inactive: 7.31%.

On to `COc1cccc(C(=O)N(c2cc(C)cc(C)c2)C2CCN(C(=O)OC(C)(C)C)CC2)c1`, for which the inhibition is inactive: -2%.

As for `COc1cc(OC)cc(C(=O)NCC2(N3CCOCC3)CCCCC2)c1`, the inhibition was inactive: -0.91%.

Regarding `Cc1ccc(NC2(C#N)CCN(Cc3ccccc3)CC2)cc1`, the inhibition was inactive: 3.21%.

For the compound `Cc1ccc(C(=O)NCC2(N3CCCCC3)CCCCC2)o1`, the inhibition is inactive: -2.31%.

Turning to `Fc1ccccc1NC1CCN(Cc2ccccc2)CC1`, the inhibition was inactive: 2.17%.

As for `COc1cc(OC)cc(C(=O)NCC2(N3CCCCC3)CCCCC2)c1`, the inhibition is inactive: 5.52%.

Turning to `CC(=O)N(c1ccccc1)C1CCNCC1`, the inhibition is inactive: 4.78%.

For the compound `O=C(NCC1(N2CCCCC2)CCCCC1)c1ccco1`, the inhibition was inactive: -7.64%.

For the compound `CN(C)c1ccc(C(=O)NCC2(N3CCCCC3)CCCCC2)cc1`, the inhibition is inactive: 1.8%.

As for `Cn1c(=O)[nH]cc(N(CCCl)CCCl)c1=O`, the inhibition is inactive: -0.24%.

As for `Cc1ccccc1NC1(C#N)CCN(Cc2ccccc2)CC1`, the inhibition is inactive: 3.18%.

`CCN1CCC(Nc2cccc(F)c2)CC1`: the inhibition is inactive: 12%.
